Hits are enriched below; roughly 2.1% of the tested compounds scored in any of these assays.
Nrf2 ARE act: activators of Nrf2 (ARE) signaling; 0.31% of 410,000 active; AREc32 ARE-luciferase reporter (MCF7-derived line), luminescence, 24 h; Potency, µM (series often up to 46.1 µM), for the others: top-dose activation, most hits filed as activators; note: potency is the fitted concentration of half-maximal effect; % of control where 0% means no effect; nearly all actives have a fitted effect of over 65% in size
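Luciferase luminescence (Steady-Glo, 30 min at room temperature) served as the read-out of ARE activation in AREc32 cells treated with compounds for 24 hr at 37 deg C.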
A549 tox: kills or reduces viability of A549 cells in Nrf2 counter-screen; A549 ARE-Fluc cells, CellTiter-Fluor viability, 18-24 h; Potency, µM (series often up to 46 µM), for the others: at the highest dose activity change, negative = cytotoxicity, hits mostly inhibitors; 0.16% of 390,000 active; AID 504648; note: potency is the fitted concentration of half-maximal effect; % is set by controls: 0 for no effect and ±100 for the full control effect
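Cytotoxicity counterscreen: CellTiter-Fluor fluorescence was measured in A549 ARE_Fluc cells after 18-24 h of compound exposure in a concentration series. The subsequent BugLite luminescent read reports ARE-luciferase activity.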
TSG101-PTAP inh: blocks PTAP/TSG101 interaction to inhibit HIV-1 budding; Q99816; Fluorescence polarization, FITC-PTAP peptide / Tsg101 binding; Potency, µM (series often up to 115 µM), without a hit: at the top dose activity change, negative = inhibition, actives largely listed as inhibitors; 340,000 tested, under 10 active; active = well fitted inhibition curve with a large enough effect in the main read-out, with a control signal flat, not every such curve was filed as active; inconclusive = small, poorly fitted or top-dose-only effect, or effect the other way, or a change in a side signal; inactive = no such curve, though single readings can be large or run the other way; note: potency is the fitted concentration of half-maximal effect; % of control where 0% means no effect
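FP read-out: FITC-PTAP peptide, 50 nM final, binding Tsg101 binding domain, 10 uM final; 20 min, r.t.; 10 mM HEPES pH 7.5, 0.15 M NaCl, 0.01% Tween 20, 3 mM EDTA, 0.1 mM TCEP.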
miR-21 reporter: miR-21 reporter, rising signal. HeLa miR-21 FLuc reporter, luciferase, 48 h. Potency, µM (titrated, usually from 38.3 µM), without a hit: at the top dose reporter change, positive = more light. 340,000 tested, under 10 active. AID 2288; active = well fitted rising curve with a large enough effect; inconclusive = small, poorly fitted or top-dose-only effect; inactive = no such curve, though single readings can be large or run the other way;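 also: % of control where 0% means no effect; miR-21 action dims this reporter so a rising signal means less miR-21 action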
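Using DMEM plus 10% FBS, HeLa miR-21-FLuc cells are incubated with test compounds (final up to about 40uM) for 48 hours; firefly luciferase signal is then imaged following reagent-mediated lysis.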
Glioma ERSR ind: ER stress response induction in glioma; U87-MG GRP78 promoter luciferase reporter, 16 h; Potency, µM, for the others: at the top dose activation, actives largely listed as activators; 0.02% of 420,000 active; AID 602332; note: potency is the fitted concentration of half-maximal effect; series mostly up to about 76 µM; % of control where 0% means no effect; nearly all actives have a fitted effect of over 35% in size
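ERSR induction read as luciferase luminescence (Bright-Glo, 10 min at room temperature) in stably transfected human U87-MG glioma cells exposed to compounds for 16 h, using GRP78 as sensor.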
Nrf2 inh: Nrf2 pathway inhibition; 2.1% of 360,000 active; Potency, µM (doses to about 46 µM), for inactives: at the top dose activity change, negative = inhibition, most hits filed as inhibitors; A549 ARE-Fluc reporter, luciferase luminescence, 18-24 h; note: potency is the fitted concentration of half-maximal effect; % is set by controls: 0 for no effect and ±100 for the full control effect; nearly all actives have a fitted effect of over 60% in size
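Nrf2 activity is the BugLite luminescence, read 15 min after reagent at room temperature, following CellTiter-Fluor cytotoxicity readout (30 min, 37C). Compound titrations were applied for 18-24 h to 5000 A549 ARE_Fluc cells/well in 5% FBS OPTI-MEM.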
* hit, by the source's call; ? = inconclusive; · = no result given; ! = not active in a repeat. Unless noted, calls come from the whole dose curve; as a rule, active = well fitted curve in the direction sought with a large enough effect; inconclusive = small, poorly fitted or top-dose-only effect, or another doubt; inactive = no such curve, though single readings can be large; an effect the other way counts as inactive or inconclusive.

(1) CCOc1ccc(OCC)c(NC(=O)CSc2nc3ccccc3c(=O)n2C)c1
(2) Cc1cccc(NC(=O)CSc2nc3ccccc3c(=O)n2C)c1
(3) O=C(CSc1nc2ccccc2c(=O)n1CCCN1CCOCC1)Nc1cccc(S(=O)(=O)N2CCCCCC2)c1
(4) O=C(CSc1nc2ccccc2c(=O)n1CCCN1CCOCC1)Nc1ccc(F)c(Cl)c1
(5) CC(C)(C)OC(=O)Cc1nnc(-c2cc3ccccc3[nH]2)o1
(6) COc1ccc(NC2=C(Cl)C(=O)N(CCc3ccccc3)C2=O)cc1
(7) COc1ccc(NC2=C(Cl)C(=O)N(CCc3ccccc3)C2=O)c(OC)c1
(8) C=C1NN(Cc2ccccc2)C(=O)N1c1ccc(OCc2ccccc2)cc1
(9) COc1ccc(-c2nc3ccccc3n2Cc2ccc(C)cc2)cc1
(10) COc1ccc(Cn2c(O)c(C=Nc3ccc(O)cc3)c3ccccc3c2=O)cc1

| assay / compound | 1 | 2 | 3 | 4 | 5 | 6 | 7 | 8 | 9 | 10 |
| --- | --- | --- | --- | --- | --- | --- | --- | --- | --- | --- |
| Nrf2 ARE act | 0% | 0% | 2% | 0% | · | ? | 13µM* | · | 8% | 0% |
| A549 tox | -29% | -5% | ? | -27% | 0% | -4% | 0% | · | -2% | ? |
| TSG101-PTAP inh | 1% | -8% | -4% | -5% | · | -4% | -3% | · | -2% | ? |
| miR-21 reporter | 1% | 3% | 28% | · | · | -36% | -49% | · | -24% | -7% |
| Glioma ERSR ind | -6% | -4% | -4% | -2% | · | 5% | 2% | -3% | 4% | -3% |
| Nrf2 inh | 10µM* | 12µM* | 23µM* | -24% | ? | 2% | 1% | · | · | ? |

Individual results from above.
miR-21 reporter with CCOc1ccc(OCC)c(NC(=O)CSc2nc3ccccc3c(=O)n2C)c1 stands at 1%
miR-21 reporter with COc1ccc(-c2nc3ccccc3n2Cc2ccc(C)cc2)cc1 stands at -24%
Nrf2 ARE act with O=C(CSc1nc2ccccc2c(=O)n1CCCN1CCOCC1)Nc1cccc(S(=O)(=O)N2CCCCCC2)c1 stands at 2%
TSG101-PTAP inh with COc1ccc(NC2=C(Cl)C(=O)N(CCc3ccccc3)C2=O)cc1 stands at -4%

Some of these compounds in order of their number in TSG101-PTAP inh, descending.
item	Compound	Nrf2 ARE act	TSG101-PTAP inh	miR-21 reporter	Glioma ERSR ind
1	CCOc1ccc(OCC)c(NC(=O)CSc2nc3ccccc3c(=O)n2C)c1	0%	1%	1%	-6%
7	COc1ccc(NC2=C(Cl)C(=O)N(CCc3ccccc3)C2=O)c(OC)c1	13µM*	-3%	-49%	2%
3	O=C(CSc1nc2ccccc2c(=O)n1CCCN1CCOCC1)Nc1cccc(S(=O)(=O)N2CCCCCC2)c1	2%	-4%	28%	-4%

Next results follow:
(11) COc1ccc(Cn2c(-c3ccc(C)cc3)c[n+]3ccccc23)cc1
(12) COc1ccc(Cn2c(O)c(C=Nc3ccc(C)cc3)c3ccccc3c2=O)cc1
(13) CCN(Cc1ccncc1)Cc1ccc2c(c1)CN(C(=O)c1ccccc1-n1cccn1)CCO2
(14) O=C(CNC(=O)c1cccc2ccccc12)OC(C(=O)Nc1cc(C(F)(F)F)ccc1Cl)c1ccccc1 (stereo not given)
(15) CC(C)(C)c1cc(O)c(C(C)(C)C)cc1O
(16) CSc1ccccc1OCc1cc(C(=O)N2CCc3c(Cl)cccc3C2)no1
(17) COc1cc2c(cc1OC)CN(C(=O)c1cc(COc3ccccc3SC)on1)CC2
(18) COc1ccc(OCCN2CCN(C(=O)c3ccc(OC)c(OC)c3)CC2)cc1
(19) CCCCCn1c(=O)[nH]c2cc(C(=O)N3CCN(c4ccc(F)cc4)CC3)ccc2c1=O
(20) COc1ccc(Cn2c(=O)[nH]c3cc(C(=O)N4CCN(c5ccccc5F)CC4)ccc3c2=O)cc1

| assay / compound | 11 | 12 | 13 | 14 | 15 | 16 | 17 | 18 | 19 | 20 |
| --- | --- | --- | --- | --- | --- | --- | --- | --- | --- | --- |
| Nrf2 ARE act | 3% | 0% | · | · | · | 0% | 2% | 0% | 0% | 0% |
| A549 tox | -16% | ? | · | 7% | · | 3% | · | -19% | -7% | 2% |
| TSG101-PTAP inh | 2% | -1% | · | · | · | -7% | · | -8% | 7% | 0% |
| miR-21 reporter | ? | 0% | · | · | · | -4% | · | 11% | · | 3% |
| Glioma ERSR ind | -4% | -3% | -1% | · | 40µM*! | 4% | 0% | 2% | -5% | -4% |
| Nrf2 inh | 0.73µM* | 9.2µM* | · | 12% | · | 9.2µM* | · | 23µM* | ? | -19% |

(21) COc1ccc(C(=O)N2CCN(Cc3ccc4c(c3)OCO4)CC2)cc1OC
(22) COc1ccc(Cn2c(=O)[nH]c3cc(C(=O)N4CCN(Cc5ccccc5)CC4)ccc3c2=O)cc1
(23) COc1cc(C(=O)N2CCN(Cc3ccc4c(c3)OCO4)CC2)cc(OC)c1OC
(24) COc1ccc(OCC(=O)N2CCN(C(=O)c3ccc(OC)c(OC)c3)CC2)cc1
(25) CCCCCn1c(=O)[nH]c2cc(C(=O)N3CCN(c4ccc(C(C)=O)cc4)CC3)ccc2c1=O
(26) Cc1ccc(C(=O)Nc2cccc(-c3nc(CNC(=O)c4ccc5ccccc5n4)c(C)o3)c2)s1
(27) COC(=O)c1c(OCc2ccccn2)cc(=O)n2c1CCN(Cc1ccc3nsnc3c1)CC2
(28) COCCn1c(=S)[nH]c2cc(C(=O)N3CCN(Cc4ccc5c(c4)OCO5)CC3)ccc2c1=O
(29) COCCn1c(=O)[nH]c2cc(C(=O)N3CCN(Cc4ccc5c(c4)OCO5)CC3)ccc2c1=O
(30) O=C(c1ccc(Cn2c(=O)[nH]c3ccsc3c2=O)cc1)N1CCN(c2ccccc2)CC1

| assay / compound | 21 | 22 | 23 | 24 | 25 | 26 | 27 | 28 | 29 | 30 |
| --- | --- | --- | --- | --- | --- | --- | --- | --- | --- | --- |
| Nrf2 ARE act | 1% | -1% | 3% | 0% | 3% | · | · | 0% | -1% | 0% |
| A549 tox | -7% | -20% | -6% | 6% | -5% | · | · | -26% | -2% | -5% |
| TSG101-PTAP inh | -3% | -5% | 2% | · | -3% | · | · | -12% | -1% | -3% |
| miR-21 reporter | 25% | 22% | -2% | 2% | 8% | · | · | 4% | · | 4% |
| Glioma ERSR ind | -3% | -7% | -3% | 0% | -2% | -1% | -5% | -1% | -5% | 2% |
| Nrf2 inh | 16µM* | 23µM* | 5% | 16% | 21µM* | · | · | ? | 12µM* | ? |

(31) O=C(c1[nH]nc2c1CCc1ccccc1-2)N1CCN(Cc2ccc3c(c2)OCO3)CC1
(32) O=C(c1ccccc1)N1CCN(Cc2ccc3c(c2)OCO3)CC1
(33) COc1ccc(Cn2c(=O)[nH]c3cc(C(=O)N4CCN(c5ccccc5OC)CC4)ccc3c2=O)cc1
(34) O=C(c1ccc(Cn2c(=O)[nH]c3ccccc3c2=O)cc1)N1CCN(c2ccc(F)cc2)CC1
(35) NC[C@@H]1O[C@@H](O[C@H]2[C@@H](O)[C@H](O[C@@H]3[C@@H](O)[C@@H](N)C[C@H](N)[C@H]3O[C@H]3O[C@H](CN)[C@@H](O)[C@@H](O)[C@H]3N)O[C@H]2CO)[C@H](N)[C@@H](O)[C@@H]1O
(36) CC(C)(C)n1ncc2c(=O)n(Cc3ccc(Cl)c(C(F)(F)F)c3)cnc21
(37) COc1ccccc1-c1ccc(C(=O)NCCN2CCOCC2)c(N2CCN(c3ccccc3F)CC2)n1
(38) CSc1ncccc1C(=O)NCC1Cc2cc(-c3cnccn3)cc(Cl)c2O1 (stereo not given)
(39) COc1ccccc1-c1ccnc(-n2ncc(C(=O)NCCc3ccccn3)c2C)n1
(40) Cc1c(C(=O)N2CCCCCC2)sc2ncnc(NCC3CCCO3)c12 (stereo not given)
(41) COC(=O)C1CCCCN1Cc1ccc2c(c1)CN(C(=O)c1ccc(F)cc1)CCO2 (stereo not given)
(42) COc1ccccc1Cn1c(=S)[nH]c2cc(C(=O)N3CCN(c4ccccc4OC)CC3)ccc2c1=O
(43) COc1ccccc1N1CCN(C(=O)c2ccc3c(=O)n(Cc4ccc5c(c4)OCO5)c(=O)[nH]c3c2)CC1

| assay / compound | 31 | 32 | 33 | 34 | 35 | 36 | 37 | 38 | 39 | 40 | 41 | 42 | 43 |
| --- | --- | --- | --- | --- | --- | --- | --- | --- | --- | --- | --- | --- | --- |
| Nrf2 ARE act | 1% | -1% | 0% | 0% | · | · | · | · | · | · | · | 1% | 0% |
| A549 tox | -17% | -4% | -26% | -8% | · | · | · | · | · | · | · | 6% | -9% |
| TSG101-PTAP inh | -1% | 3% | -1% | -8% | · | · | · | · | · | · | · | 5% | -4% |
| miR-21 reporter | 2% | -2% | 12% | 25% | · | · | · | · | · | · | · | 5% | 2% |
| Glioma ERSR ind | 11% | -3% | -1% | -10% | -3% | -2% | -5% | 4% | -1% | -1% | -3% | -3% | 1% |
| Nrf2 inh | 15µM* | 1% | 21µM* | 10µM* | · | · | · | · | · | · | · | 0% | 15µM* |
